Biological target: PLA2 from bee venom (Apis mellifera, UniProt P00630)
Assay type: biochemical

The chains behind the UniProt entries cited, without tags or fusion partners. Residues count along the entry.
UniProt P00630, 34-167 limits assumed: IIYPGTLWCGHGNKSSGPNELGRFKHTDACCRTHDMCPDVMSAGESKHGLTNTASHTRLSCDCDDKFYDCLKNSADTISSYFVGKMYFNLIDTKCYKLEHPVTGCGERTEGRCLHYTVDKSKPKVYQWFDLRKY

## CC[C@H](C)[C@H](NC(=O)CN)C(=O)NCC(=O)N[C@@H](C)C(=O)N[C@H](C(=O)N[C@@H](CC(C)C)C(=O)N[C@@H](CCCCN)C(=O)N[C@H](C(=O)N[C@@H](CC(C)C)C(=O)N[C@H](C(=O)N[C@H](C(=O)NCC(=O)N[C@@H](CC(C)C)C(=O)N1CCC[C@H]1C(=O)N[C@@H](C)C(=O)N[C@@H](CC(C)C)C(=O)N[C@H](C(=O)N[C@@H](CO)C(=O)N[C@@H](Cc1c[nH]c2ccccc12)C(=O)N[C@H](C(=O)N[C@@H](CCCCN)C(=O)N[C@@H](CCCNC(=N)N)C(=O)N[C@@H](CCCCN)C(=O)N[C@@H](CCCNC(=N)N)C(=O)N[C@@H](CCC(N)=O)C(=O)N[C@@H](CCC(N)=O)C(N)=O)[C@@H](C)CC)[C@@H](C)CC)[C@@H](C)O)[C@@H](C)O)C(C)C)C(C)C [Melittin]
  maximal inhibition of PLA2 enzyme activity: 80%

From patent US20030166548A1, “PLAP polypeptides and methods of producing and using same” (Board of Regents, The University of Texas System, priority 1997, published 2003)
